According to paper PMC8691691 (ACS Chemical Neuroscience, 2021):
Changes are numbered by the printed parent chain.

Legend:
GlyT2 W484F mutant = molecular target: T1, GlyT2 W484F mutant (Rattus norvegicus, UniProt P58295, W484F); experiment: [3H]glycine transport by GlyT2 mutant in COS7 cells; assay type: cell-based
T1 construct: expressed in transfected cells; host or cells: COS7
T1 sequence (P58295 1-799 W484F): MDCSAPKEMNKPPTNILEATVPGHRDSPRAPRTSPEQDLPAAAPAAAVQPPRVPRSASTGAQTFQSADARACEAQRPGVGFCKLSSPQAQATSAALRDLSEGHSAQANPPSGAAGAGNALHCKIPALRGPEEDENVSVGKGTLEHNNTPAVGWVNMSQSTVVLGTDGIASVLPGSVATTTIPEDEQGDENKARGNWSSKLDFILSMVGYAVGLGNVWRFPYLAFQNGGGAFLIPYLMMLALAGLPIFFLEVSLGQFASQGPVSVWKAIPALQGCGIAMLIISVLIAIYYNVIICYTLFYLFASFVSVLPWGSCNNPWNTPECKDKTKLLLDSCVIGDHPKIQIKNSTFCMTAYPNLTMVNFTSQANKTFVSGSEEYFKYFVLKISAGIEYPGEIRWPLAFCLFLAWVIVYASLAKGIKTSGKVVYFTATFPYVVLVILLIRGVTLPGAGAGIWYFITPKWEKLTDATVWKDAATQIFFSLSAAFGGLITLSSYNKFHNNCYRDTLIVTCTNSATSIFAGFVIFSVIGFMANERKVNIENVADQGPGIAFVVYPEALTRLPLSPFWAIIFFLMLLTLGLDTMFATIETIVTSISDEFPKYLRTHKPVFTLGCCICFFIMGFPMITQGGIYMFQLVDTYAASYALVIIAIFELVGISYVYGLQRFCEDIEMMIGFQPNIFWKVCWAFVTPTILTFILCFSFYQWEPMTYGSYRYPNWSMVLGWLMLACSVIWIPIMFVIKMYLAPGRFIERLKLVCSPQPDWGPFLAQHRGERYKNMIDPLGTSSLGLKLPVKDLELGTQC

GlyT2 W484C mutant = molecular target: T2, GlyT2 W484C mutant (Rattus norvegicus, UniProt P58295, W484C); experiment: as above; assay type: cell-based
T2 construct: expressed in transfected cells; host or cells: COS7
T2 sequence (P58295 1-799 W484C): T1 sequence (P58295 1-799 W484F) with F484C

## NCC(=O)O [Gly, glycine]
GlyT2 W484F mutant
  EC50: 910 ± 83 µM
GlyT2 W484C mutant
  EC50: 2340 ± 209 µM
